Target: T1, calcium antagonism (thoracic aorta spiral specimen, contraction by calcium) (Cavia porcellus, UniProt O35505)
T1 construct: from tissue; host or cells: thoracic aorta spiral strip of male Hartley guinea pig
Assay: Calcium antagonistic effect (contraction response by calcium of spiral thoracic aorta specimen, Magnus method)
Parameters: species or system Hartly male giunea pig
Details: guinea pig thoracic aorta, read-out: Calcium antagonistic effect, pA2 value (converted)
Method: [Calcium antagonistic effect]
Using a spiral blood vessel specimen taken from a thoracic aorta of Hartly male giunea pig weighed 400 to 600 g, a contraction response by calcium was measured as a dose-response curve according to Magnus method and the antagonistic activity for each test compound was indicated as above-mentioned pA2 value.

By UniProt entry, the sequences of proteins in these tests, tags left out.
UniProt O35505, whole entry: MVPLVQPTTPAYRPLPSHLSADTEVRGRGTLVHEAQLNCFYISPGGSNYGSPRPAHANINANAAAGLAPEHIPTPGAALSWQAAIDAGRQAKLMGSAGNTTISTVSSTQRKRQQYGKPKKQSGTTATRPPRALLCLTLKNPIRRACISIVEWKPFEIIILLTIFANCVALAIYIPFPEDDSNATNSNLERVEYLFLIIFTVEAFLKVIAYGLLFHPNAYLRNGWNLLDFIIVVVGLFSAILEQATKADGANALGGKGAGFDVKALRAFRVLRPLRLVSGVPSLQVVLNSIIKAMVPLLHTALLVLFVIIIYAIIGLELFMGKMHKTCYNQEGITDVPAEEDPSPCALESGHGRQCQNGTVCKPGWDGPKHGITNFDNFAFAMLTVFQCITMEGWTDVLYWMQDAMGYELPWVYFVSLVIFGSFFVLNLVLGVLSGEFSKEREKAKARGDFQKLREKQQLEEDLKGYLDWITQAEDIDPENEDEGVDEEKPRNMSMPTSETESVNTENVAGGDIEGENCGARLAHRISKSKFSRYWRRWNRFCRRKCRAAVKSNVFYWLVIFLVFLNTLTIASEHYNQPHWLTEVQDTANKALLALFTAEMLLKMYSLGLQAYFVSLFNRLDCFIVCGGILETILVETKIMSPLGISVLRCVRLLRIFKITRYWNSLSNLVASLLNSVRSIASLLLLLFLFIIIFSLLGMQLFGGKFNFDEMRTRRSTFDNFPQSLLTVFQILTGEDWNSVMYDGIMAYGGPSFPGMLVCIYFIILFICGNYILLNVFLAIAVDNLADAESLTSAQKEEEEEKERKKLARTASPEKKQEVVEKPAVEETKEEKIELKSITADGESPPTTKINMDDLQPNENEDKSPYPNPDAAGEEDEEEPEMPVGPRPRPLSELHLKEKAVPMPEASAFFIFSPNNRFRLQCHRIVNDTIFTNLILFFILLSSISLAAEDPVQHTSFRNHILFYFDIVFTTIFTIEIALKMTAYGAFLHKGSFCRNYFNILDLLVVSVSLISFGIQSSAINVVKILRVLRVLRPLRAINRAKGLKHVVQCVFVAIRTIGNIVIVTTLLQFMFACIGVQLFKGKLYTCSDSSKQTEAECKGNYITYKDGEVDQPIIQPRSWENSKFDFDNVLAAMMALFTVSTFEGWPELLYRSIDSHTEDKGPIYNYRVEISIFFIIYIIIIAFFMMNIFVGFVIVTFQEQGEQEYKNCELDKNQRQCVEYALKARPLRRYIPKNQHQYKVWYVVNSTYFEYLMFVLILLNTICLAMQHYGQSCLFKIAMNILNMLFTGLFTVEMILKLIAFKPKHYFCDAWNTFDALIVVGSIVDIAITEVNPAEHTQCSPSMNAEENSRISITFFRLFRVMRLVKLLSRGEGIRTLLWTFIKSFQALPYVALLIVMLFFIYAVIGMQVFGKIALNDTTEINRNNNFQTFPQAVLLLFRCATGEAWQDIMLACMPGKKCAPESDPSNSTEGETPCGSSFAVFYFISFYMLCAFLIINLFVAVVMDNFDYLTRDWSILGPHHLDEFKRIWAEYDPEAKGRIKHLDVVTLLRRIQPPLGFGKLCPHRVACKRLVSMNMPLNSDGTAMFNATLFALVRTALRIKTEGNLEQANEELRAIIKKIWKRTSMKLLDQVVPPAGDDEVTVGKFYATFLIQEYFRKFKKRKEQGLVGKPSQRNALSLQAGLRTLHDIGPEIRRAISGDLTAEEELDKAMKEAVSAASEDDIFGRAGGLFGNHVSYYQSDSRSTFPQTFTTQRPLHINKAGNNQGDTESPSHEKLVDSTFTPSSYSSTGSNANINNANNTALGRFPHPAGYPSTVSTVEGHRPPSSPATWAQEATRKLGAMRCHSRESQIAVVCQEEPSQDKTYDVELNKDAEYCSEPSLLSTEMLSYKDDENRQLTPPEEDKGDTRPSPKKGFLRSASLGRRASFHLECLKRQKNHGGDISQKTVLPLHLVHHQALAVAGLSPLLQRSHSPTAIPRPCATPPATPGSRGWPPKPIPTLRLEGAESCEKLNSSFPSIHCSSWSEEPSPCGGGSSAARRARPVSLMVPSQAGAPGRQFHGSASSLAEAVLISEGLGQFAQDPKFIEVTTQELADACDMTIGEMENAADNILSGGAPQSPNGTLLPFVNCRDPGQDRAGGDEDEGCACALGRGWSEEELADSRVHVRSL

Kb: 91.2 nM
SMILES: COc1ccc([C@@H]2Sc3ccccc3N(CCN(C)C)C(=O)[C@@H]2OC(C)=O)cc1 [Diltiazem, reference compound]

From patent US4652566A, “Benzofuran derivatives, processes for preparing the same and antihypertensive agents containing the same” (Kaken Pharmaceutical Co., Ltd., priority 1984, dated 1987)
